# Laboratory results reported in ChEMBL document CHEMBL1926667, “The synthesis of 2-nitroaryl-1,2,3,4-tetrahydroisoquinolines, nitro-substituted 5,6-dihydrobenzimidazo[2,1-a]isoquinoline N-oxides and related heterocycles as potential bioreducible substrates for the enzymes NAD(P)H: quinone oxidoreductase 1 and E. coli nitroreductase” (Bioorg Med Chem Lett, 2011).
# Assay: Solubility of the compound at 100 uM in sodium phosphate buffer with 10% DMSO and 500 uM NADH at pH 7
# Conditions: pH 7, 100 µM
structure (smiles),measurement,value
O=[N+]([O-])c1ccc2c(c1)CN(c1ccc([N+](=O)[O-])cc1[N+](=O)[O-])CC2,solubility,Insoluble
